Reference: paper PMC12102759 (Protein Science : A Publication of the Protein Society, 2025)

Protein sequences, listed by entry. Tags and fused reporters are not part of them. Residues count along the entry.
UniProt Q9Y490, 309-401: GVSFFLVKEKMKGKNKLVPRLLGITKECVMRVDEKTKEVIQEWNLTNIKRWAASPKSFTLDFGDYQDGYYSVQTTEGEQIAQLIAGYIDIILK

Target: TLN1 PTB (Homo sapiens, UniProt Q9Y490)
Assay type: binding

Substance | DMS-derived PSSM value of the single-substitution variant | DMS-derived PSSM value, averaged over the two overlapping peptides
TDERSWVYSPLHYSAQ S5G (TDERGWVYSPLHYSAQ) | 0.003016 | 
FPTDERSWVYSPLHYS P2R (FRTDERSWVYSPLHYS) | 0.01393 | 
TDERSWVYSPLHYSAQ S14F (TDERSWVYSPLHYFAQ) | 0.03519 | 
TDERSWVYSPLHYS(averaged) P10N (TDERSWVYSNLHYS) |  | 0.06723
TDERSWVYSPLHYSAQ S9P (TDERSWVYPPLHYSAQ) | 0.0174 | 
TDERSWVYSPLHYSAQ Y13G (TDERSWVYSPLHGSAQ) | 0.009966 | 
FPTDERSWVYSPLHYS P2N (FNTDERSWVYSPLHYS) | 0.0467 | 
FPTDERSWVYSPLHYS D4R (FPTRERSWVYSPLHYS) | 0.05711 | 
FPTDERSWVYSPLHYS Y15W (FPTDERSWVYSPLHWS) | 0.1085 | 
FPTDERSWVYSPLHYS V9N (FPTDERSWNYSPLHYS) | 0.6095 | 
TDERSWVYSPLHYSAQ H12T (TDERSWVYSPLTYSAQ) | 0.0817 | 
TDERSWVYSPLHYS(averaged) S5L (TDERLWVYSPLHYS) |  | 0.06237
FPTDERSWVYSPLHYS Y15A (FPTDERSWVYSPLHAS) | 0.07808 | 
FPTDERSWVYSPLHYS S16M (FPTDERSWVYSPLHYM) | 0.03471 | 
TDERSWVYSPLHYSAQ R4T (TDETSWVYSPLHYSAQ) | 0.01177 | 
FPTDERSWVYSPLHYS P2L (FLTDERSWVYSPLHYS) | 0.2108 | 
FPTDERSWVYSPLHYS P12P | 0.02716 | 
FPTDERSWVYSPLHYS T3V (FPVDERSWVYSPLHYS) | 0.009255 | 
FPTDERSWVYSPLHYS E5I (FPTDIRSWVYSPLHYS) | 0.07824 | 
FPTDERSWVYSPLHYS P12I (FPTDERSWVYSILHYS) | 0.06286 | 
FPTDERSWVYSPLHYS P12M (FPTDERSWVYSMLHYS) | 0.01521 | 
FPTDERSWVYSPLHYS V9Y (FPTDERSWYYSPLHYS) | 0.01766 | 
TDERSWVYSPLHYS(averaged) T1R (RDERSWVYSPLHYS) |  | 0.05322

Substance | DMS-derived PSSM value of the single-substitution variant | DMS-derived PSSM value, averaged over the two overlapping peptides
FPTDERSWVYSPLHYS R6S (FPTDESSWVYSPLHYS) | 0.3307 | 
TDERSWVYSPLHYS(averaged) E3Y (TDYRSWVYSPLHYS) |  | 0.02384
TDERSWVYSPLHYSAQ L11P (TDERSWVYSPPHYSAQ) | 0.007293 | 
TDERSWVYSPLHYSAQ H12D (TDERSWVYSPLDYSAQ) | 0.03485 | 
FPTDERSWVYSPLHYS D4A (FPTAERSWVYSPLHYS) | 0.0399 | 
FPTDERSWVYSPLHYS P2S (FSTDERSWVYSPLHYS) | 0.07182 | 
TDERSWVYSPLHYSAQ P10E (TDERSWVYSELHYSAQ) | 0.01248 | 
TDERSWVYSPLHYSAQ S14K (TDERSWVYSPLHYKAQ) | 0.01183 | 
FPTDERSWVYSPLHYS W8E (FPTDERSEVYSPLHYS) | 0 | 
FPTDERSWVYSPLHYS W8I (FPTDERSIVYSPLHYS) | 0 | 
TDERSWVYSPLHYSAQ E3M (TDMRSWVYSPLHYSAQ) | 0.0514 | 
TDERSWVYSPLHYSAQ V7Q (TDERSWQYSPLHYSAQ) | 0.01298 | 
TDERSWVYSPLHYSAQ V7H (TDERSWHYSPLHYSAQ) | 0.005577 | 
FPTDERSWVYSPLHYS W8F (FPTDERSFVYSPLHYS) | 0.2983 | 
TDERSWVYSPLHYS(averaged) E3T (TDTRSWVYSPLHYS) |  | 0.03892
FPTDERSWVYSPLHYS R6I (FPTDEISWVYSPLHYS) | 0.0751 | 
TDERSWVYSPLHYSAQ A15T (TDERSWVYSPLHYSTQ) | 0.03217 | 
TDERSWVYSPLHYSAQ E3G (TDGRSWVYSPLHYSAQ) | 0.05173 | 
FPTDERSWVYSPLHYS T3M (FPMDERSWVYSPLHYS) | 0.004936 | 
TDERSWVYSPLHYS(averaged) D2A (TAERSWVYSPLHYS) |  | 0.1865
FPTDERSWVYSPLHYS P12T (FPTDERSWVYSTLHYS) | 0.03724 | 
TDERSWVYSPLHYS(averaged) S14W (TDERSWVYSPLHYW) |  | 0.06383
TDERSWVYSPLHYS(averaged) Y13N (TDERSWVYSPLHNS) |  | 0.04146

Substance | DMS-derived PSSM value of the single-substitution variant | DMS-derived PSSM value, averaged over the two overlapping peptides
TDERSWVYSPLHYS(averaged) L11K (TDERSWVYSPKHYS) |  | 0.003935
FPTDERSWVYSPLHYS Y10L (FPTDERSWVLSPLHYS) | 0.0305 | 
TDERSWVYSPLHYS(averaged) S14G (TDERSWVYSPLHYG) |  | 0.08
FPTDERSWVYSPLHYS E5E | 0.01423 | 
FPTDERSWVYSPLHYS T3E (FPEDERSWVYSPLHYS) | 0.1875 | 
TDERSWVYSPLHYS(averaged) H12M (TDERSWVYSPLMYS) |  | 0.1291
FPTDERSWVYSPLHYS Y15Q (FPTDERSWVYSPLHQS) | 0.01747 | 
TDERSWVYSPLHYS(averaged) S5F (TDERFWVYSPLHYS) |  | 0.00272
TDERSWVYSPLHYSAQ H12S (TDERSWVYSPLSYSAQ) | 0.004182 | 
TDERSWVYSPLHYSAQ S14L (TDERSWVYSPLHYLAQ) | 0.01761 | 
TDERSWVYSPLHYS(averaged) L11Y (TDERSWVYSPYHYS) |  | 0.0542
TDERSWVYSPLHYS(averaged) V7H (TDERSWHYSPLHYS) |  | 0.01065
FPTDERSWVYSPLHYS H14L (FPTDERSWVYSPLLYS) | 0.01725 | 
FPTDERSWVYSPLHYS L13S (FPTDERSWVYSPSHYS) | 0.04078 | 
TDERSWVYSPLHYS(averaged) W6S (TDERSSVYSPLHYS) |  | 0
TDERSWVYSPLHYS(averaged) R4V (TDEVSWVYSPLHYS) |  | 0.07212
FPTDERSWVYSPLHYS H14W (FPTDERSWVYSPLWYS) | 0.009247 | 
TDERSWVYSPLHYS(averaged) W6M (TDERSMVYSPLHYS) |  | 0
TDERSWVYSPLHYS(averaged) H12I (TDERSWVYSPLIYS) |  | 0.01258
TDERSWVYSPLHYS(averaged) D2S (TSERSWVYSPLHYS) |  | 0.06786
TDERSWVYSPLHYS(averaged) S14Y (TDERSWVYSPLHYY) |  | 0.02795
TDERSWVYSPLHYS(averaged) P10S (TDERSWVYSSLHYS) |  | 0.01928
TDERSWVYSPLHYS(averaged) S5M (TDERMWVYSPLHYS) |  | 0.1082

Substance | DMS-derived PSSM value of the single-substitution variant | DMS-derived PSSM value, averaged over the two overlapping peptides
TDERSWVYSPLHYS(averaged) L11Q (TDERSWVYSPQHYS) |  | 0.006573
FPTDERSWVYSPLHYS R6Y (FPTDEYSWVYSPLHYS) | 0.01255 | 
TDERSWVYSPLHYSAQ A15R (TDERSWVYSPLHYSRQ) | 0.01924 | 
TDERSWVYSPLHYSAQ Y13P (TDERSWVYSPLHPSAQ) | 0.02173 | 
TDERSWVYSPLHYSAQ S9N (TDERSWVYNPLHYSAQ) | 0.1851 | 
TDERSWVYSPLHYS(averaged) P10T (TDERSWVYSTLHYS) |  | 0.03475
TDERSWVYSPLHYS(averaged) R4Q (TDEQSWVYSPLHYS) |  | 0.03279
TDERSWVYSPLHYSAQ Y8M (TDERSWVMSPLHYSAQ) | 0.03539 | 
TDERSWVYSPLHYS(averaged) E3S (TDSRSWVYSPLHYS) |  | 0.04543
TDERSWVYSPLHYSAQ S14N (TDERSWVYSPLHYNAQ) | 0.02523 | 
TDERSWVYSPLHYS(averaged) P10L (TDERSWVYSLLHYS) |  | 0.1503
TDERSWVYSPLHYSAQ Y13W (TDERSWVYSPLHWSAQ) | 0.01059 | 
FPTDERSWVYSPLHYS T3T | 0.0268 | 
TDERSWVYSPLHYSAQ L11V (TDERSWVYSPVHYSAQ) | 0.0645 | 
FPTDERSWVYSPLHYS S11H (FPTDERSWVYHPLHYS) | 0 | 
TDERSWVYSPLHYS(averaged) H12D (TDERSWVYSPLDYS) |  | 0.05292
TDERSWVYSPLHYS(averaged) V7A (TDERSWAYSPLHYS) |  | 0.1872
TDERSWVYSPLHYSAQ E3K (TDKRSWVYSPLHYSAQ) | 0.03736 | 
TDERSWVYSPLHYS(averaged) W6I (TDERSIVYSPLHYS) |  | 0.007259
TDERSWVYSPLHYS(averaged) Y13D (TDERSWVYSPLHDS) |  | 0.1958
